# Yeast mating assay B: variants of the scFv Ab-14

Binding partner: SARS-CoV-2 spike HR2 peptide, sequence PDVDLGDISGINAS.

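The starting antibody came from a phage panning campaign against this peptide. Designed CDR sequences, proposed from the first random library and measured here. Group labels follow the data file (Ctrl: baseline library sampled from a position-specific scoring matrix, with some repeated check sequences; En: ensemble of fine-tuned language models; GP: Gaussian process model; HC: hill climbing; Gen: genetic algorithm; Gibbs: Gibbs sampling; a sequence that several methods proposed may carry one label only). The assay is AlphaSeq: two haploid yeast populations carry antibody and antigen on their surface. Mating (16 h, 30 °C) was followed by selection of diploids and sequencing of their barcodes. The ratio of observed to expected reads was calibrated, replicate by replicate, on BCL2-family standards whose Kd was known from biolayer interferometry. There are six technical replicates.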

Ab-14 is the parent antibody, in scFv form: VH, then three GGGGS repeats, then VL. The heavy chain is unchanged in all variants.
VH: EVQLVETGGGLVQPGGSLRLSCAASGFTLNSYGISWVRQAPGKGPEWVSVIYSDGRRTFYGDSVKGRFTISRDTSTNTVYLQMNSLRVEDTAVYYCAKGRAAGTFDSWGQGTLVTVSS
VL: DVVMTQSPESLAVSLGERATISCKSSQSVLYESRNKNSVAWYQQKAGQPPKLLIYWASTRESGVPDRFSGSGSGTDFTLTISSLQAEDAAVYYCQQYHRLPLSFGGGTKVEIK

The parent's light chain CDRs are KSSQSVLYESRNKNSVA, WASTRES, QQYHRLPLS; each variant's own CDRs replace them letter for letter.
Affinities are written as log10 Kd with Kd in nM; a lower number is a better binder.
The mean shown is taken over the replicates in which the pair was detected.
"no signal" means that the variant was in the library but no mating with the target was seen in any replicate; the authors take this as a sign of poor binding, and no number exists.
Entries are sorted by rising average, undetected variants last.
Values of this round are not directly comparable with the first-round values of the same sequences.

| CDR-L1 | CDR-L2 | CDR-L3 | group | log10 Kd (nM), mean | seen in | empty controls |
|---|---|---|---|---|---|---|
| KCSQSVLYESRNKNSVA | HASTRGS | QQYHRLPLS | Ctrl | -0.67 | 6 of 6 | 0 of 18 |
| KLSQSVLYESRNKNNVA | DASTRMS | QQYHRLPLS | GP_Gen | -0.64 | 6 of 6 | 0 of 18 |
| KLSQSVLYESRMKNSVA | NASTREE | QQYHRLPLS | GP_Gen | -0.52 | 6 of 6 | 1 of 18 |
| KLSQSFLYESRQKNSVA | NASQRES | QQYHRLPLS | GP_Gen | -0.45 | 6 of 6 | 0 of 18 |
| SFSQSVLYEPRTKNSVA | NASTRES | QQYHRLPLS | GP_HC | -0.44 | 5 of 6 | 0 of 18 |
| KLSQSVLYEMRNKNSVA | SASTRES | QQYHRLPLS | GP_Gen | -0.12 | 6 of 6 | 2 of 18 |
| KLSQSVMYESRNKNSVA | EASTRMS | QQYHRLPLS | GP_Gen | -0.08 | 6 of 6 | 0 of 18 |
| KLAQSVLYESRNKNSVA | HASTRED | QQYHRLPLS | GP_HC | -0.07 | 6 of 6 | 1 of 18 |
| KIGDTLNQLTHKKNNVA | DLVTREN | QQYFRLPLS | En_Gen | -0.07 | 6 of 6 | 2 of 18 |
| SIYDATGMESRNKNPIA | DVSTRPS | QQYHRLPLS | En_HC | -0.06 | 6 of 6 | 0 of 18 |
| KYPQSELYESRNQNSVA | MASQREE | QQYHRLPLS | GP_Gibbs | -0.01 | 6 of 6 | 0 of 18 |
| KFSQWVLYESRTKNSVA | NASTRES | QQYERLPLS | GP_HC | 0.07 | 6 of 6 | 1 of 18 |
| KLQQSVHYESRNKNSVA | NASTRES | QQYHRLPLS | GP_Gen | 0.08 | 6 of 6 | 0 of 18 |
| KLSGIMRMESKNKSNIA | EVNERSE | QQYDRLPLS | En_Gen | 0.08 | 6 of 6 | 0 of 18 |
| KFDQEWPYESRNKNSVA | MASQRCS | QQYHRLPLS | GP_Gibbs | 0.09 | 6 of 6 | 1 of 18 |
| KSSGSQLYEDRNKNSVA | SATQRES | QQYHRLPLS | GP_Gibbs | 0.12 | 6 of 6 | 1 of 18 |
| KSQQGVLYESRNKNSVA | GASLRES | QQYHRLPLS | GP_HC | 0.16 | 6 of 6 | 2 of 18 |
| KLQQMYEYESRNPNSVA | SASTREL | QQYHRLPLS | GP_Gibbs | 0.16 | 6 of 6 | 0 of 18 |
| AVVKMKSEGDYHAGNVA | NANLRSD | QQYYRLPLI | En_Gibbs | 0.24 | 6 of 6 | 1 of 18 |
| KVSPSVLYEDRNCNAVA | QASQRES | QQYHRLPLS | GP_Gibbs | 0.29 | 6 of 6 | 0 of 18 |
| KIQQSELYEDRVKNSVA | NASDRMS | QQYHRLPLS | GP_Gibbs | 0.35 | 6 of 6 | 2 of 18 |
| KLQQGMDYESRNDNSVA | HASTRES | QQYHRLPLF | GP_Gibbs | 0.37 | 6 of 6 | 0 of 18 |
| KLFQSNEYESRNDNSVA | NASQREW | QQYHRLPLS | GP_Gibbs | 0.40 | 6 of 6 | 1 of 18 |
| KSSWSVLYESNNKNSVA | GASTRED | QQYHRLPLS | GP_HC | 0.44 | 6 of 6 | 3 of 18 |
| NIYQSMNFLGRVMNSIA | DASTIWD | QQYHRLPLS | En_HC | 0.45 | 6 of 6 | 0 of 18 |
| KLLSLSLHQTGKLNSVA | DATITQQ | QQYMSLPLM | En_Gibbs | 0.50 | 6 of 6 | 0 of 18 |
| KSSISVLYESNNKNSVA | HASTRED | QQYHRLPLS | GP_HC | 0.63 | 6 of 6 | 1 of 18 |
| NLSISMLHESINKHNVA | EVRTREK | QQYDRLPLS | En_HC | 0.75 | 6 of 6 | 1 of 18 |
| KSSQSQMDESGAKNSVA | WASTRES | QQYHRLPLS | Ctrl | 0.85 | 6 of 6 | 1 of 18 |
| KLDMNELGQSQNKNCVA | SSAQKCS | QQYSRLPLS | En_Gibbs | 0.88 | 6 of 6 | 2 of 18 |
| KLQQSWLYESRNINNVA | NCSKRES | QQYHRLPLS | GP_Gibbs | 1.01 | 6 of 6 | 0 of 18 |
| MSSQSQLYESRNKMSVA | WASTRES | QQYHRLPLS | Ctrl | 1.04 | 6 of 6 | 1 of 18 |
| MVTLQLRPGHETQNPIA | EASHRAA | QQYAHLPLG | En_Gibbs | 1.05 | 6 of 6 | 1 of 18 |
| KSSQSVCMESRNKNSVA | DASTRES | QQYHRLPLS | GP_HC | 1.05 | 6 of 6 | 0 of 18 |
| KSQQGVLYQSRNKNSVA | GASTRES | QQYHRLPLS | GP_HC | 1.12 | 6 of 6 | 0 of 18 |
| KLSQSVLYESRNKNSVA | WASTRES | QQYFGLPLS | Ctrl | 1.36 | 6 of 6 | 1 of 18 |
| KSSQSVLYEHRNKNSVA | HASTRES | QQYHRLPLS | Ctrl | 1.51 | 6 of 6 | 2 of 18 |
| QFDLHHKQIETIESAVA | ETSVRAD | QSYDRLPLS | En_Gibbs | 1.75 | 6 of 6 | 3 of 18 |
| KSSQSVSMESRNKNSVA | WASTRES | QQYHRLPLS | Ctrl | 1.80 | 6 of 6 | 0 of 18 |
| KSSLSVLYESHNKNSVA | WASTRES | QQYHRLPLS | Ctrl | 1.90 | 6 of 6 | 0 of 18 |
| DSSQKPLYESRNKNSVA | WASTREN | QQYHRLPLS | Ctrl | 1.98 | 4 of 6 | 2 of 18 |
| KIDENTFHGANRQYNIA | EERTVGA | QQYFRLPII | En_Gibbs | 2.10 | 1 of 6 | 0 of 18 |
| KSSQSWLYESRNFWSVA | AASTRES | QQYHRLPLS | GP_HC | 2.16 | 5 of 6 | 0 of 18 |
| KLRQVTGYESYNKNSVA | QTSTRAN | QDYHRLPLS | En_HC | 2.18 | 6 of 6 | 2 of 18 |
| TISGMANYESTNKNSVA | ELTTRGK | QQYERLPLS | En_HC | 2.21 | 6 of 6 | 0 of 18 |
| KSSQSVLYEMPNKNSVA | WATTRES | QQYHRLPLS | Ctrl | 2.23 | 5 of 6 | 0 of 18 |
| KISQMTRVGSTHGNSIA | EEVTRAK | QQYHRLPLS | En_Gen | 2.41 | 5 of 6 | 1 of 18 |
| MITAAMNAYNGSFSSVA | DKAISVN | QQYHRLPLS | En_Gibbs | 2.71 | 3 of 6 | 4 of 18 |
| KLYMSTGLESRNKDSIA | DNSTRGT | QQYHRLPLS | En_HC | 3.33 | 1 of 6 | 0 of 18 |
| KSSQSVLYESVNKNSVA | WASTRSS | QQAHRLPLS | Ctrl | 3.95 | 1 of 6 | 1 of 18 |
| MISQLMNFGTFAINSVA | QASLRCN | QQYDRLPLT | En_Gen | no signal | 0 of 6 | 0 of 18 |
| KSSQSVLYESRNMNSVA | WASTRES | QQYHRLWLS | Ctrl | no signal | 0 of 6 | 0 of 18 |
| KSSQSVLYESRNKNSVA | AASTRES | QSYHWLCLS | Ctrl | no signal | 0 of 6 | 0 of 18 |

Extract of 7 entries:

{"CDR-L1": "KIQQSELYEDRVKNSVA", "CDR-L2": "NASDRMS", "CDR-L3": "QQYHRLPLS", "group": "GP_Gibbs", "log10 Kd (nM), mean": "0.35", "seen in": "6 of 6", "empty controls": "2 of 18"}
{"CDR-L1": "MITAAMNAYNGSFSSVA", "CDR-L2": "DKAISVN", "CDR-L3": "QQYHRLPLS", "group": "En_Gibbs", "log10 Kd (nM), mean": "2.71", "seen in": "3 of 6", "empty controls": "4 of 18"}
{"CDR-L1": "KLFQSNEYESRNDNSVA", "CDR-L2": "NASQREW", "CDR-L3": "QQYHRLPLS", "group": "GP_Gibbs", "log10 Kd (nM), mean": "0.40", "seen in": "6 of 6", "empty controls": "1 of 18"}
{"CDR-L1": "KLQQGMDYESRNDNSVA", "CDR-L2": "HASTRES", "CDR-L3": "QQYHRLPLF", "group": "GP_Gibbs", "log10 Kd (nM), mean": "0.37", "seen in": "6 of 6", "empty controls": "0 of 18"}
{"CDR-L1": "KSSQSWLYESRNFWSVA", "CDR-L2": "AASTRES", "CDR-L3": "QQYHRLPLS", "group": "GP_HC", "log10 Kd (nM), mean": "2.16", "seen in": "5 of 6", "empty controls": "0 of 18"}
{"CDR-L1": "KLSGIMRMESKNKSNIA", "CDR-L2": "EVNERSE", "CDR-L3": "QQYDRLPLS", "group": "En_Gen", "log10 Kd (nM), mean": "0.08", "seen in": "6 of 6", "empty controls": "0 of 18"}
{"CDR-L1": "KISQMTRVGSTHGNSIA", "CDR-L2": "EEVTRAK", "CDR-L3": "QQYHRLPLS", "group": "En_Gen", "log10 Kd (nM), mean": "2.41", "seen in": "5 of 6", "empty controls": "1 of 18"}

Three control strains display no target. For all light chain designs, 4% of the pairings with them gave a signal, with a median of 2.64 and one signal in twenty below 1.59, so weak values seen in few replicates may be background. Also given: how often the same scFv was detected with the empty control strains.
The authors averaged sequences with at least three values out of six and counted those with two or fewer as poor binders.

Data: MIT Lincoln Laboratory AlphaSeq set, Li et al. 2023, doi:10.1038/s41467-023-39022-2, as distributed in FLAb.